# Results reported in patent publication US20090030067A1, “Anti-proliferative combination therapy comprising satraplatin or jm118 and a taxane” ((GPC Biotech AG), priority 2005, published 2009).
# Test system: prostatic adenocarcinoma cell line PC-3
# Experiment: SRB cytotoxicity assay, single compounds, PC-3
# Assay type: cell-based
# Conditions: 48 h
# Procedure: The prostatic adenocarcinoma cell line PC-3 (ATCC order number: CRL-1435; Invest Urol (1979) 17,16; Cytogenet Cell Genet (1993) 62,183) was used. […] The cells were cultured at 37° C., 5% CO2 in F-12K media supplemented with 10% FCS and 1% Pen/Strep.
# […]. The cells were incubated for 48 hours and the effect of this combination of compounds on cellular proliferation was determined with the SRB assay.
structure (smiles),measurement,value
"CC(=O)O[C@@]12CO[C@@H]1C[C@H](O)[C@@]1(C)C(=O)[C@H](O)C3=C(C)[C@@H](OC(=O)[C@H](O)[C@@H](NC(=O)OC(C)(C)C)c4ccccc4)C[C@@](O)([C@@H](OC(=O)c4ccccc4)[C@H]21)C3(C)C [Docetaxel, N-debenzoyl-N-tert-butoxycarbonyl-10-deacetyl paclitaxel]",IC50,8 nM
